# Literature values, collected in patent US20060229261A1, “Acarbose methods and formulations for treating chronic constipation” (priority 2005, published 2006).
# Conditions: in vivo; cited from earlier work
smiles,measurement,value
C[C@H]1O[C@H](O[C@H]2[C@H](O)[C@@H](O)[C@@H](O[C@H]3[C@H](O)[C@@H](O)C(O)O[C@@H]3CO)O[C@@H]2CO)[C@H](O)[C@@H](O)[C@@H]1N[C@H]1C=C(CO)[C@@H](O)[C@H](O)[C@H]1O (stereo partly shown) [acarbose],oral dose absorbed as parent drug or active metabolite,about 2%
